Target: heterotrimeric PP2A holoenzyme involving the Bα subunit (Aα-Bα-Cα) ( | human)
Assay: native gel or EMSA

Kd: ~3000 nM
B1: full-length Tau, splice variant 4R0N (human) (natural protein)
chain: not shown
